Results: patent publication US20260053892A1, “Induction and Expansion of Regulatory T Cells” (Board of Regents of the University of Nebraska, priority 2022, published 2026)

Test system: Tregs
Experiment: Treg profiles by flow cytometry in blood, lymph nodes and spleen of treated mice
Assay type: in vivo, C57BL/6 male mice
Experimental: C57BL/6 male mice (5-6 weeks old) were purchased from Jackson Laboratories (Bar Harbor, ME). Mice were weighed and divided into four treatment groups (n=3 per group): 1) PBS (phosphate-buffered saline; control), 2) GM-CSF (0.1 mg/kg), 3) low dose IL-2 (2.5×10^4 IU; human recombinant interleukin-2 (PeproTech, Cranbury, NJ)), and 4) GM-CSF (0.1 mg/kg) and low dose IL-2 (2.5×10^4 IU). Following a period of acclimation, mice were injected intraperitoneally (i.p.) with daily GM-CSF (Group 4) (Days 0-4). On Days 5-9, daily treatment began for Groups 1-3 and IL-2 treatment began for Group 4. On Day 10, the mice were sacrificed, blood was collected, and spleen and lymph nodes were harvested.
Following treatment, whole blood, lymph nodes and spleens were collected to determine T-cell profiles via flow cytometric analysis. Peripheral blood, lymph nodes, and splenocytes were fluorescently labeled using antibodies against cell surface antigens including CD3, CD4, CD25, CD8, CD19, CD127, ICOS, GITR, CD39, CD62L, CD44, GITR, and CTLA-4, and for the intracellular markers FoxP3 and STAT5. Whole blood, lymph nodes, and splenocytes were labeled with PerCP Cyanine 5.5-anti-CD3 (eBioscience/Thermo Fisher Scientific, Waltham, MA), APC-anti-CD19 (eBiosciences), PE-anti-CD25 (eBiosciences), PE-cyanine7-anti-CD4 (eBiosciences), PerCP-eFluor710-anti-CD39 (eBiosciences), Alexa Fluor™ 488-anti-CD278 (ICOS) (Biolegend, San Diego, CA), FITC-anti-CD127 (Biolegend), FITC-anti-CD44, Alexa Fluor™ 488-anti-CTLA-4, Alexa Flour™ 700-anti-GITR, FITC-anti-CD8, and PerCP Cyanine 5.5-anti-CD62L. Intracellular staining was performed following permeabilization for 45 minutes at 4° C. Cells were labeled with APC-anti-FoxP3 (eBioscience) or anti-STAT5-Pacific Blue. Samples were analyzed with an LSRII flow cytometer and FACSDiva™ Software (BD Biosciences, San Diego, CA).
All values are expressed as mean±SEM using ANOVA (mean±SEM, n=3). *=p≤0.05; **=p≤0.01; *** p≤0.001. Data were analyzed using GraphPad Prism 9.3.1 software (La Jolla, CA).

In the case of human recombinant interleukin-2 [IL-2], the “CD4+CD25+FOXP3+ Tregs” value (blood, FIG. 4) is reported as “increase”, the “CD25+CD127− Tregs” value (blood, FIG. 5) is reported as “increase” and the “CD25+ICOS+ Tregs” value (blood, FIG. 7) is reported as “did not significantly induce”. The “CD4+CD25+ Tregs” value (lymph nodes, FIG. 2) was “only a mild increase”, the “CD25+GITR+ Tregs” value (lymph nodes, FIG. 9) was “small increase” and the “CD4+CD25+FOXP3+ Tregs” value (spleen, FIG. 3) was “increase”. For the same substance, the “CD25+CD127− Tregs” value (spleen, FIG. 6) was “increase”, the “CD25+ICOS+ Tregs” value (spleen, FIG. 8) was “did not significantly induce” and the “CD25+CD39+ Tregs” value (spleen, FIG. 10) was “increase”. The “CD25+CD62L− Tregs” value (spleen, FIG. 11) was “small increase”.
